ChEMBL document CHEMBL1128840, “Synthesis of myo-inositol-1-phosphatase inhibitors in which the phosphate group is replaced by less polar groups” (Bioorg Med Chem Lett, 1995)

By UniProt entry, the sequences of proteins in these tests, tags left out.
UniProt P20456, whole entry, looked up: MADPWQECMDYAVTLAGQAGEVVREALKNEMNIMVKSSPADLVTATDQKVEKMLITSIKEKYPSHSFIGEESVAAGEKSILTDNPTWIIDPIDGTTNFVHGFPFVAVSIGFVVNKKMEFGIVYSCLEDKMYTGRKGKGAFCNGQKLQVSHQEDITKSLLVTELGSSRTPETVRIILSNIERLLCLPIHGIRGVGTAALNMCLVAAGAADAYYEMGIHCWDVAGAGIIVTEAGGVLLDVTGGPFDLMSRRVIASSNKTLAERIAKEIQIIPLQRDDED

Target: Inositol monophosphatase 1 (Bos taurus, UniProt P20456)
Assay: Inhibitory activity against myo-inositol-1-phosphatase

**Q.** For `CP(=O)(O)O[C@@H]1[C@H](O)C[C@@H](O)C[C@H]1OCCCCc1ccccc1O`, which IC50 is on record?
**A.** 87 µM
